Results published in patent US20070203098A1, “Pten Inhibitors” (priority 2004, published 2007).

Chains of the proteins cited; added tags and fusions are not shown. Lines headed by an entry give the natural chain unless they say otherwise; changes in a name come on top.
UniProt P60484: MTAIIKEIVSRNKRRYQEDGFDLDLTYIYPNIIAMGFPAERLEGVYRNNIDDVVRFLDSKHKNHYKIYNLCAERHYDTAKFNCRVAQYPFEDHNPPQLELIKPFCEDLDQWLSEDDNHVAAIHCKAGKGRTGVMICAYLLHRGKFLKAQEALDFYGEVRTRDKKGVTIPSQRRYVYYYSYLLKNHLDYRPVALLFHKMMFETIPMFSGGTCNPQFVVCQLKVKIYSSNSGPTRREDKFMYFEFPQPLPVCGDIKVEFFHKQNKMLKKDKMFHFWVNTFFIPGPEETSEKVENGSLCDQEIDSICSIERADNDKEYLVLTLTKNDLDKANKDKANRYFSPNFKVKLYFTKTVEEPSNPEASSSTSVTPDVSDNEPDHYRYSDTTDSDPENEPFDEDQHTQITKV
UniProt P18031: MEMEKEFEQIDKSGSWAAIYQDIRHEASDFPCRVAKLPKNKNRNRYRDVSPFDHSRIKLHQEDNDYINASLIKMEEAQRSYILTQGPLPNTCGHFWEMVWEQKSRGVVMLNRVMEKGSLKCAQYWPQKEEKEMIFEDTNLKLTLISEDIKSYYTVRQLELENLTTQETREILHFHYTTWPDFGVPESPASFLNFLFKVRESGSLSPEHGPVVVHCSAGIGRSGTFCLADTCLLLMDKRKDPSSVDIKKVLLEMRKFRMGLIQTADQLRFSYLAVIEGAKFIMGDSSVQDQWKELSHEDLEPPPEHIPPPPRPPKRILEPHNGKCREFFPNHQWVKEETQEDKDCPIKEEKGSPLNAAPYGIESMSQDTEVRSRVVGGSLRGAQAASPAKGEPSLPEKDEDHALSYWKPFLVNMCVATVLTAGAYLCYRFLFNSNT

How the values were obtained:
PTEN [1] = target: T1, PTEN (Homo sapiens, UniProt P60484); test: PTEN Inhibition Assay: General Screening; format: biochemical; settings: Table 10 vanadates
PTEN [2] = target: T1, PTEN; test: PTEN Inhibition Assay: IC50 Determinations; format: biochemical
PTP1B [3] = target: T2, PTP1B (Homo sapiens, UniProt P18031); test: PTP1B Inhibition Assay: IC50 Determinations; format: biochemical
MEF PTEN wt = test: Migration Assay, MEF PTEN wt; format: cell-based, mouse; settings: Table 4
mouse aortic ring = test: In Vitro Aortic Ring Angiogenesis Assay; format: cell-based; settings: 5 μM; 5 days
PTP1B [4] = target: T2, PTP1B; settings: read-out: PTP1B, ImperialCollege; substrate pNPP; cited from earlier work
MEF PTEN null = test: Migration Assay, MEF PTEN null; format: cell-based, mouse; settings: Table 4
PTEN [5] = target: T1, PTEN; settings: read-out: PTEN, ImperialCollege; substrate PtdIns(3, 4, 5)P3; cited from earlier work
[6] = read-out: PTEN, Semafore Pharmaceuticals, substrate PtdIns(3, 4, 5)P3, Triplicate
[7] = read-out: PTP1B, Semafore Pharmaceuticals, substrate (Glu4Tyr[P])2, triplicate
[8] = read-out: PTP1B, Semafore Pharmaceuticals, substrate pNPP, triplicate

| Substance | % Inh. @ 250 uM in PTEN Assay (PTEN [1]) | IC50 (PTEN [2]; read-out: PTEN IC50, Table 29) [nM] | IC50 (PTEN [2]; read-out: PTEN Inhibition IC50, Table 1) [nM] | IC50 (PTEN [2]; [6]) [nM] | IC50 (PTP1B [3]; read-out: PTP1B IC50, Table 29) [nM] | IC50 (PTP1B [3]; [7]) [nM] | IC50 (PTP1B [3]; [8]) [nM] | migration number, Average (MEF PTEN wt; 125 uM) | migration number, Average (MEF PTEN wt; 250 uM) | Branch (% of control) (mouse aortic ring) | Stem (% of control) (mouse aortic ring) | IC50 (PTP1B [4]) [nM] | migration number, Average (MEF PTEN null; 125 uM) | migration number, Average (MEF PTEN null; 250 uM) | IC50 (PTEN [5]) [nM] |
| --- | --- | --- | --- | --- | --- | --- | --- | --- | --- | --- | --- | --- | --- | --- | --- |
| Dipotassium Bisperoxo (5-hydroxypyridine-2- carboxyl)oxovanadate (V) | 98-97.2% | 91 | 33 | 91.1 | 45 | 45 | 79.5 | 13.50 | 13.90 | 164-198 % of control | 164-201 % of control | 25300 | 40.50 | 43.70 | 14 |
| Dipotassium Bisperoxo (picolinato)oxovanadate (V) | 98.1% | 111 |  | 111 | 82 | 82 | 146 |  |  |  |  | 61000 |  |  | 31 |
| Potassium Bisperoxo (1,10-phenanthroline) oxovanadate (V) | 100.4% | 357 |  | 357 | 84 | 84 | 75.4 |  |  |  |  | 920 |  |  | 38 |
| Potassium Bisperoxo(bipyridine)oxovanadate (V) | 94.7% | 276 |  | 276 | 103 | 103 |  |  |  |  |  | 164 |  |  | 18 |

Where two headings read alike, the source gives them in different places.
